{"source": "paper PMC8537386", "about": "“The Specificity and Broad Multitarget Properties of Ligands for the Free Fatty Acid Receptors FFA3/GPR41 and FFA2/GPR43 and the Related Hydroxycarboxylic Acid Receptor HCA2/GPR109A” (Pharmaceuticals, 2021)", "system": "HCA2/GPR109A mRNA", "assay": "HCA2/GPR109A gene expression in LPS-stimulated THP-1 macrophages (qRT-PCR)", "format": "cell-based, human", "details": "niacin 50 µM; 4 h LPS 1 µg/mL; p < 0.01", "protocol": "The human THP-1 monocyte cell line was obtained from ATCC (American Type Culture Collection). […] The THP-1 monocytes were stimulated to differentiate into macrophages with phorbol 12-myristate 13-acetate (PMA) (50 ng/mL) for 24 h. The medium was exchanged for PMA-free medium for 48 h before the cells were used for experiments.\nThe total RNA was isolated from THP-1 cells using TRIzol reagent, according to the manufacturer’s protocol. First-strand cDNA was synthesized from 2 µg of RNA using oligo(dT) primers with RevertAid H Minus kit (Thermo Fisher Scientific, USA). The qRT-PCR procedure was performed using ABsolute Blue QPCR SYBR Green Master Mix reagent (Thermo Fisher Scientific, USA) with a ViiA7 real-time PCR detection system (Applied Biosystems, USA). The primer pairs that were employed for HCA2/GPR109A were forward 5′-[…]-3′ and reverse 5′-[…]-3′; for FFA2/GPR43 were forward 5′-[…]-3′ and reverse 5′-[…]-3′; for FFA3/GPR41 were forward 5′-[…]-3′ and reverse 5′-[…]-3′; for IL-6 were forward 5′-[…]-3′ and reverse 5′-[…]-3′; for MCP-1 were forward 5′-[…]-3′ and reverse 5′-[…]-3′; for TNF-α were forward 5′-[…]-3′ and reverse 5′-[…]-3′; for RPS29 were forward 5′-[…]-3′ and reverse 5′- […]-3′. The mRNA levels were quantified and normalized to the levels of the reference gene RPS29 using the 2^−ΔΔCt method and presented as relative expression compared to the values for untreated cells."}
{"smiles": "O=C(O)c1cccnc1", "note": "[niacin, reference compound]", "values": [{"measurement": "LPS-stimulated HCA2/GPR109A mRNA level", "result": "significantly reduced"}]}
